Source: PMC3326523 (Cell, 2012)

Target: BRD4(2), second bromodomain of BRD4 (human, UniProt O60885 333-460)
Assay: ITC; peptide (mM stock) titrated into bromodomain (about 50 μM), by the concentrations in the tables; 10 or 15°C, 50 mM HEPES pH 7.5, 150 mM NaCl; single binding site model
Conditions: both partners purified

IQGITKPAIRRY (acetyl-lysine at K31 (residue 6 of the peptide)) [H4K31 peptide IQGITKacPAIRRY] was tested, and the Kd was 170 ± 10.1 µM and the “stoichiometry N” value was 1.01 ± 0.122.
